Assay results published in patent US20150051242A1, “RAFAMYCIN ANALOGS AND METHODS FOR MAKING SAME” (HANGZHOU ZYLOX PHARMA CO., LTD, priority 2012, published 2015).

Sequences of proteins named here, by UniProt entry; tags and fusion partners are left off. Residues count along the entry.
UniProt P42345, 1360-2549 limits assumed: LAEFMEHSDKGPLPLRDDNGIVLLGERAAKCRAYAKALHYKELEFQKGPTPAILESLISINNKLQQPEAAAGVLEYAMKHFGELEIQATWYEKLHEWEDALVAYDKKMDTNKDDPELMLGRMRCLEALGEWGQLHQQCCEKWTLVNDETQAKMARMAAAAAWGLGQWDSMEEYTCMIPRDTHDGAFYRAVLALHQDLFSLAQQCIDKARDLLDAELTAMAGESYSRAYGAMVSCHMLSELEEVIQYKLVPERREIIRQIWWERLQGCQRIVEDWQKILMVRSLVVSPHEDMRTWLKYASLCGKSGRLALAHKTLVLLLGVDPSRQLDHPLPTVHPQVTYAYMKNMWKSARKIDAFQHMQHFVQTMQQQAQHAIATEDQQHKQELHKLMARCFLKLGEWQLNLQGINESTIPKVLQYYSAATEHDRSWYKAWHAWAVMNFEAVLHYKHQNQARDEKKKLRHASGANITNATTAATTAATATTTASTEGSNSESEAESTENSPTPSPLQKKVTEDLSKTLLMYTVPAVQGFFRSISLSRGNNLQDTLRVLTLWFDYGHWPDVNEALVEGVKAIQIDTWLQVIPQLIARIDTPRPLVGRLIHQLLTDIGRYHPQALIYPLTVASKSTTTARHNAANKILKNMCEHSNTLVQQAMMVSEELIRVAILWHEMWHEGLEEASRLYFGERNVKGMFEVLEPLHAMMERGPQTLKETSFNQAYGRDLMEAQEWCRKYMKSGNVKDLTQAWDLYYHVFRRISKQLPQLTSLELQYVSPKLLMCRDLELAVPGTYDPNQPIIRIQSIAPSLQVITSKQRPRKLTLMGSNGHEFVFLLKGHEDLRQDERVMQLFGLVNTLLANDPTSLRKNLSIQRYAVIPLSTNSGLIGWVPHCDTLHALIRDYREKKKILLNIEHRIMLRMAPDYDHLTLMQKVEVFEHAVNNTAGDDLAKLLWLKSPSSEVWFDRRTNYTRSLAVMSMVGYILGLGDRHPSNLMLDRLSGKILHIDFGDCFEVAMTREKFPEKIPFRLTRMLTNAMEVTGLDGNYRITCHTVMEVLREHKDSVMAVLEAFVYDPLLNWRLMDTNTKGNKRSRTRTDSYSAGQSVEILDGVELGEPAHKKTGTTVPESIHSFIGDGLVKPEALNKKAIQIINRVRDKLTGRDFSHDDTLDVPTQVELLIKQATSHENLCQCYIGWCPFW
UniProt P62942, whole entry: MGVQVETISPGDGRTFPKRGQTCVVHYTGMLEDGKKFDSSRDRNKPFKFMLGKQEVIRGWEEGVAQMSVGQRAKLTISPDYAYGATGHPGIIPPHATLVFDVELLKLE

Target: mTOR (Homo sapiens, UniProt P42345+P62942)
Experiment: mTOR TR-FRET kinase assay (phosphorylation of GFP-4E-BP1)
Type: biochemical
Settings: read-out: IC50 mTOR inhibition, 10 μM ATP, 0.4 μM GFP-4E-BP1

CO[C@H]1C[C@@H]2CC[C@@H](C)[C@@](O)(O2)C(=O)C(=O)N2CCCC[C@H]2C(=O)O[C@H]([C@H](C)C[C@@H]2CC[C@@H](OCc3cn(CC(C)(CO)CO)nn3)[C@H](OC)C2)CC(=O)[C@H](C)/C=C(\C)[C@@H](O)[C@@H](OC)C(=O)[C@H](C)C[C@H](C)/C=C/C=C/C=C/1C
IC50: > 10 µM
